pIC50: −log10 of the molar value.
Molecular target: Acetylcholinesterase (Homo sapiens, UniProt P22303)
Experiment: Inhibition Assay: Acetylcholinesterase extracted from human erythrocytes (buffered aqueous solution, ≧500 units/mg, Sigma Aldrich) is diluted in a 20 mM HEPES buffer pH8, 0.1% Triton X-100, to obtain a standard solution with 2.5 units of enzyme activity/ml. 100 μL of a 0.3 mM 5,5-dithiobis(2-nitrobenzoic acid) (DTNB) solution in a pH 7.4 phosphate buffer are introduced into a 96-well plate, follow

Chains of the proteins cited; added tags and fusions are not shown. Residues count along the entry.
UniProt P22303, 32-614 limits assumed: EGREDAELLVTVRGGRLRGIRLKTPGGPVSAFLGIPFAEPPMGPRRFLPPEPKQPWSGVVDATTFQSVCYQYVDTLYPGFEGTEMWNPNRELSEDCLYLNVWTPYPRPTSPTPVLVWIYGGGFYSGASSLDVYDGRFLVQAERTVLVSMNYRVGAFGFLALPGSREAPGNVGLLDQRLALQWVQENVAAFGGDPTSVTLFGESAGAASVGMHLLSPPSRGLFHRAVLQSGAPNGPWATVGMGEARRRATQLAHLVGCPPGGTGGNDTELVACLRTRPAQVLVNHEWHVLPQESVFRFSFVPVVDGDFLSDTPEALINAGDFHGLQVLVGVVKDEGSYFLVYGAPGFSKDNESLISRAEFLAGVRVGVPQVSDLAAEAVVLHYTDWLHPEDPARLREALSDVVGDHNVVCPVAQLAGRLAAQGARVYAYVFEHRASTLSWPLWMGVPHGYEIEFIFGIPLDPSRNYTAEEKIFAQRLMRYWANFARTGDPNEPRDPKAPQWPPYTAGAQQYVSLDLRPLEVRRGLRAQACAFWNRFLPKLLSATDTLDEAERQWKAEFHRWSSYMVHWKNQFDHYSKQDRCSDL

COc1c(C(N)=O)cc(Cl)c(N)c1CC1CCN(CC2CCCCC2)CC1
pIC50: 5.43

Source: ChEMBL document CHEMBL5726243, “Acetylcholinesterase inhibitors and promnesiant serotonin 5-HT4 receptor agonists, their methods of preparation and the pharmaceutical compositions containing the same” (2017)
